Experimental data reported in patent US8138334B2, “Substituted oxa-diaza-spiro-[5.5]-undecanone derivatives and their use as neurokinin antagonists” (Janssen Pharmaceutica N.V., priority 2005, dated 2012).

Chains of the proteins cited; added tags and fusions are not shown.
UniProt P21452, whole entry: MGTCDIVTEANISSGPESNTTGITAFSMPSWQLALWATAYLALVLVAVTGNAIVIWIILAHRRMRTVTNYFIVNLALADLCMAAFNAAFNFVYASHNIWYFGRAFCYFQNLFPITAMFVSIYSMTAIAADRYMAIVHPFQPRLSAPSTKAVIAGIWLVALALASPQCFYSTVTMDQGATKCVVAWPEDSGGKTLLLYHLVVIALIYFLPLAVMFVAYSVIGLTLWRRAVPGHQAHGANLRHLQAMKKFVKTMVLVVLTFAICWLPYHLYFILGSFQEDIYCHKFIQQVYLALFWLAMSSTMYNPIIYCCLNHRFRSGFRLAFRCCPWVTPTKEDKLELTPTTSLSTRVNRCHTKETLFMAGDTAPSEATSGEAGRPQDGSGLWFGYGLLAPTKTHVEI
UniProt P29371, whole entry: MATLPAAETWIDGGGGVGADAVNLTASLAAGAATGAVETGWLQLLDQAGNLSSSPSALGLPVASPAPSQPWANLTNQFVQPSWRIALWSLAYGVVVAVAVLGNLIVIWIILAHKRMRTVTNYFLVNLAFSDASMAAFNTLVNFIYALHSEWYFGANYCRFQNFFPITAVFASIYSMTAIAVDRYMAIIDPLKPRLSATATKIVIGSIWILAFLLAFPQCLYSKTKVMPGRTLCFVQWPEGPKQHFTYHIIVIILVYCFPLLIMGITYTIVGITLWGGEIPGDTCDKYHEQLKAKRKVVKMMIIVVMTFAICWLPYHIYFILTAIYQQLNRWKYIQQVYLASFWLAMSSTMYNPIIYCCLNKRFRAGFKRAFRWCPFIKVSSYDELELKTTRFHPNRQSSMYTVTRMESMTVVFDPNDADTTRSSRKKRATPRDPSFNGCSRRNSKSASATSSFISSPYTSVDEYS
UniProt P25103, whole entry: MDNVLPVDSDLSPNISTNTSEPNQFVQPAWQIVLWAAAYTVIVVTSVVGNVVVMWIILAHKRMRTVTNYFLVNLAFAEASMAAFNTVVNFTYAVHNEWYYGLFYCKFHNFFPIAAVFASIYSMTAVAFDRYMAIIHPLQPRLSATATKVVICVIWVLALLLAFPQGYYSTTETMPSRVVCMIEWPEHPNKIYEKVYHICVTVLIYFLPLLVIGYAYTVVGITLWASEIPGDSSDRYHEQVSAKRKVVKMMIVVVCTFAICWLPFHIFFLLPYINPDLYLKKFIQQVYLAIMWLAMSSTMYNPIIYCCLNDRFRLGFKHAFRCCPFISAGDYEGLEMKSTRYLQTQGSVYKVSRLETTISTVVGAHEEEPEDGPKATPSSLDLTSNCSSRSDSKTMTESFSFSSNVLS

Tests used:
Conditions in all cases: antagonist
NK2 = NK2 (Homo sapiens, UniProt P21452); assay: Signal transduction (ST), intracellular Ca++ FLIPR, NK2
NK3 = NK3 (Homo sapiens, UniProt P29371); assay: Signal transduction (ST), intracellular Ca++ FLIPR, NK3
NK1 = NK1 (Homo sapiens, UniProt P25103); assay: Signal transduction (ST), intracellular Ca++ FLIPR, NK1
Experimental: This test evaluates in vitro functional NK1 antagonistic activity. For the measurements of intracellular Ca^++ concentrations the cells were grown on 96-well (black wall/transparent bottom) plates from Costar for 2 days until they reached confluence. The cells were loaded with 2 μM Fluo3 in DMEM containing 0.1% BSA and 2.5 mM probenecid for 1 h at 37° C. They were washed 3× with a Krebs buffer (140 mM NaCl, 1 mM MgCl2×6H2O, 5 mM KCl, 10 mM glucose, 5 mM HEPES; 1.25 mM CaCl2; pH 7.4) containing 2.5 mM probenecid and 0.1% BSA (Ca^++-buffer). The cells were preincubated with a concentration range of antagonists for 20 min at RT and Ca^++-signals after addition of the agonists were measured in a Fluorescence Image Plate Reader (FLIPR from Molecular Devices, Crawley, England). The peak of the Ca^++-transient was considered as the relevant signal and the mean values of corresponding wells were analysed as described below.
The sigmoidal dose response curves were analysed by computerised curve-fitting, using the GraphPad Program. The EC50-value of a compound is the effective dose showing 50% of maximal effect. For mean curves the response to the agonist with the highest potency was normalised to 100%. For antagonist responses the IC50-value was calculated using non-linear regression. […]

O=C1OC2(CCN1Cc1ccccc1Cl)CCN([C@@H]1CCN(C(=O)c3cc(C(F)(F)F)cc(C(F)(F)F)c3)[C@H](Cc3ccccc3)C1)CC2
NK2 pIC50 (NK2): <5 | NK3 pIC50 (NK3): 5.5 | NK1 pIC50 (NK1): 6.1

O=C1OC2(CCN1Cc1ccccc1Cl)CCN([C@H]1CCN(C(=O)c3cc(C(F)(F)F)cc(C(F)(F)F)c3)[C@H](Cc3ccccc3)C1)CC2
NK2 pIC50 (NK2): 5.2 | NK3 pIC50 (NK3): 5.1 | NK1 pIC50 (NK1): 6.4

O=C(c1ccsc1)N1CCC2(CC1)CCN([C@H]1CCN(C(=O)c3cc(C(F)(F)F)cc(C(F)(F)F)c3)[C@H](Cc3ccccc3)C1)C(=O)O2
NK3 pIC50 (NK3): 5.2 | NK1 pIC50 (NK1): 8.1
